Data reported in patent publication US9896418B2 (dated 2018).

Test system: 786-O cells
Experiment: VEGF ELISA Assay
Assay type: cell-based
Settings: read-out: Mean VEGF ELISA EC50

EC50: 320 nM
Structure (SMILES): O=S(=O)(c1ccc(Oc2cc(F)cc(Cl)c2)c(Br)c1CO)C(F)F [Compound 74, (2-bromo-3-(3-chloro-5-fluorophenoxy)-6-((difluoromethyl)sulfonyl)phenyl)methanol]
